System: rituximab (RTX)
Assay: First screen of the resemblance-ranking peptide library with RTX, fluorescent immunostaining
Type: binding
Procedure: This value correlates with a presumptive “active” level of up 20 µg/mL in anti-lymphoma treatment. We assumed that the strength of the interaction is correlated with the intensity of fluorescent signals from secondary antibodies.
Peptide microarrays: A peptide library of 160,000, peptides as well other peptide microarrays for the substitutions and the KD analysis, were fabricated via the ultra-high-density peptide microarray technology of AXXELERA (Karlsruhe, Germany). The AXXELERA technology allows for the 30 µm-sized square peptide spots with a pitch of 60 µm that corresponds to ca. 28,000 spots/cm^2.
Immunostaining: Peptide microarrays were incubated with the monoclonal anti-CD20 antibody rituximab (Sigma-Aldrich, Steinheim, Germany) with concentrations depending on the type of experiment, diluted in PBS-T (Phosphate Buffered Saline with Tween) overnight at 4 °C. A rituximab concentration of 30 µg/mL was used for the first screen of the entire resemblance-ranking peptide library. Then, the peptide chips were stained with the fluorescently labeled secondary anti-human-IgG antibodies (Jackson ImmunoResearch, Philadelphia, PA, USA). The signals from the spots were read out with the confocal scanner Innoscan 1100 AL. The scans were performed in the red channel (635 nm), with a resolution of 2 µm/pixel, a speed of 35 µm/s, and a PMT gain of 9.

## EPANPSEKNS
RTX 30 µg/mL, library of 160,000 peptides
  number of peptides from the resemblance-ranking library that delivered stronger signals: 126,756
Peptide chip, RTX 30 µg/mL in PBS-T overnight at 4 °C, fluorescent secondary anti-human-IgG, 635 nm
  fluorescent signal when incubated with RTX: signal at the noise level

— publication PMC8999133, “Resemblance-Ranking Peptide Library to Screen for Binders to Antibodies on a Peptidomic Scale” (International Journal of Molecular Sciences, 2022)
